Measured values published in PubChem BioAssay AID697 (Columbia University Molecular Screening Center, 2007).
The entries are a selection whose mix differs from that of the whole data set. Calls of active or inactive are those of the source.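 The calls were made as follows: active = activation at 2 µM above a set limit, the mean plus 5 SD (cut at about 37% in these data); inactive = the rest.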

Amino acid sequences for entries named in this document (tags omitted).
UniProt Q9Y2R2, whole entry: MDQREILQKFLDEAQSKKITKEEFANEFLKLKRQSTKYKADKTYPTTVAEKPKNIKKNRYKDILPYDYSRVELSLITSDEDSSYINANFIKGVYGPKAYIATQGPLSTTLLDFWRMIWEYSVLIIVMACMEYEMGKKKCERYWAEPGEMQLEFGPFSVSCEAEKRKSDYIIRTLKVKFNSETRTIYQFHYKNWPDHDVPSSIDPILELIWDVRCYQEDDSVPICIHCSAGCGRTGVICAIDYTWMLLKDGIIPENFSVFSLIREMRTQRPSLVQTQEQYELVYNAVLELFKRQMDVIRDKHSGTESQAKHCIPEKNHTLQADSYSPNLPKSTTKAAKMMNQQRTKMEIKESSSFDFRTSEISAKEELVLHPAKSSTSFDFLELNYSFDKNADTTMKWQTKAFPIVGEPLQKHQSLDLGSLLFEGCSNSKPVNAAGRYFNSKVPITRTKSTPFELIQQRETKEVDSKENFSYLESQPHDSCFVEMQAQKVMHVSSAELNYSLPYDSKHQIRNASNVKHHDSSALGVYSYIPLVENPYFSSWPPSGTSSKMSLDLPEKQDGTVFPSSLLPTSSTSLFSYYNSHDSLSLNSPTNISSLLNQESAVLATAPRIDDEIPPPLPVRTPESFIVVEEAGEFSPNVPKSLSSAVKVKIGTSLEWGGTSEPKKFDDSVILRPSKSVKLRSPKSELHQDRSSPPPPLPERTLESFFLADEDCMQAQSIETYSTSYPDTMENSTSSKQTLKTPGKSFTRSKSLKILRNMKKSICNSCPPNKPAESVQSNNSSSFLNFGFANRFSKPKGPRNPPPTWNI

Biological target: Tyrosine-protein phosphatase non-receptor type 22 (Homo sapiens) (UniProt Q9Y2R2)
Assay: enhancers of human PTPN22 catalytic activity – biochemical, DiFMUP fluorescence, 2 µM, primary screen (AID 697)
Settings: recombinant LYP, at 2 µM, hits give high values, 0 = plate median, 100 = signal doubled

Row | SMILES | activation
1 | CCC(CO)(C(=O)OC1CN2CCC1CC2)c1ccccc1 (stereo not given) | inactive: -1.8%
2 | CCOc1ncccc1C(=O)NCC1(N2CCOCC2)CCCCC1 | inactive: -0.9%
3 | N/C(=N\O)c1c(N)no[n+]1[O-] | inactive: 4.2%
4 | c1ccc(CN2CCC(Nc3ccccc3)CC2)cc1 | inactive: -12.2%
5 | O=C(NCC1(N2CCOCC2)CCCCC1)c1cc(=O)[nH]c2ccccc12 | inactive: -3.3%
6 | N#CC1(Nc2ccccc2)CCN(CCc2ccccc2)CC1 | inactive: -1%
7 | CN1CCC(Nc2cccc(F)c2)CC1 | inactive: 2%
8 | O=C(OC1CN2CCC1CC2)C1c2ccccc2Oc2ccccc21 (stereo not given) | inactive: 3.6%
9 | O=C(NCC1(N2CCOCC2)CCCCC1)c1cc2ccccc2o1 | inactive: -7.7%
10 | COc1ccc(NC2CCN(CCc3ccccc3)CC2)c(OC)c1 | inactive: -6%
